# Laboratory results as given in patent US20260022143A1, “Cyclic Peptide Inhibitors of IL-23” (JANSSEN PHARMACEUTICA NV, priority 2022, published 2026).
# Target: T1, IL-23R (Homo sapiens, UniProt Q5VWK5)
# T1 construct: host or cells: HEK293
# T1 sequence (Q5VWK5 24-629): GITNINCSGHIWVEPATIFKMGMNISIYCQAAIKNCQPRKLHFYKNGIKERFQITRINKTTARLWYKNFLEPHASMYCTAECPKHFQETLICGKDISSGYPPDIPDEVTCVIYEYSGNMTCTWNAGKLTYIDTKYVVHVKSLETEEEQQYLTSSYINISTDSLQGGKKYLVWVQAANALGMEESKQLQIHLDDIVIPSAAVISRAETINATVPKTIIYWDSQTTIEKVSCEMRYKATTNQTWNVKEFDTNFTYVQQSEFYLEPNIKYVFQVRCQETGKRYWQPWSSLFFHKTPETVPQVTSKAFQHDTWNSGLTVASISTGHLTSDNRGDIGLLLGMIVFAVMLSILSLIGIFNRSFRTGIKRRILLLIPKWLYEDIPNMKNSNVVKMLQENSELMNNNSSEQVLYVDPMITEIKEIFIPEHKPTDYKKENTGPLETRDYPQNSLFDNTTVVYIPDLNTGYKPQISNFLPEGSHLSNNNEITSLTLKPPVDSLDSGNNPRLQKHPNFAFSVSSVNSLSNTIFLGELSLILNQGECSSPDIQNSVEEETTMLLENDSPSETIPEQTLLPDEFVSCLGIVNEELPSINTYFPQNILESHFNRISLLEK
# Experiment: IL23R Reporter Assay
# Format: cell-based
# Settings: HEK293 cells containing IL-23R, IL-12RP1 and STAT-inducible firefly luciferase reporter; 10 ng/mL IL-23 (EC90); 5 h at 37° C.; read-out: IL23R Reporter Assay
row,SMILES,IC50
1,CC(=O)NCCCC[C@@H]1NC(=O)[C@H](Cc2c[nH]c3c(C)cccc23)NC(=O)[C@H]([C@@H](C)O)NC(=O)[C@H](CC(N)=O)NC(=O)[C@@H](NC(C)=O)C(C)(C)SSC(C)(C)[C@@H](C(=O)N[C@@H](Cc2ccc(-n3cc(CCC[N+](C)(C)C)nn3)cc2)C(=O)N[C@@H](Cc2ccc3ccccc3c2)C(=O)NC2(C(=O)N[C@@H](CCCCNC(C)=O)C(=O)N[C@@H](CC(N)=O)C(=O)N[C@@H](Cc3cccnc3)C(=O)N(C)CC(N)=O)CCOCC2)NC1=O [compound 423],1.1 nM
2,CC(=O)NCCCC[C@@H]1NC(=O)[C@H](Cc2c[nH]c3c(C)cccc23)NC(=O)[C@H]([C@@H](C)O)NC(=O)[C@H](CC(N)=O)NC(=O)[C@@H](NC(C)=O)C(C)(C)SSC(C)(C)[C@@H](C(=O)N[C@@H](Cc2ccc(-n3cc(CCCC[N+](C)(C)C)nn3)cc2)C(=O)N[C@@H](Cc2ccc3ccccc3c2)C(=O)NC2(C(=O)N[C@@H](CCCCNC(C)=O)C(=O)N[C@@H](CC(N)=O)C(=O)N[C@@H](Cc3cccnc3)C(=O)N(C)CC(N)=O)CCOCC2)NC1=O [compound 425],1.7 nM
3,"CC(=O)NCCCC[C@@H]1NC(=O)[C@H](Cc2c[nH]c3c(C)cccc23)NC(=O)[C@H]([C@@H](C)O)NC(=O)[C@H](CC(N)=O)NC(=O)[C@@H](NC(=O)CCOCCOCC[N+](C)(C)C)C(C)(C)SSC(C)(C)[C@@H](C(=O)N[C@@H](Cc2ccc(OCCCCC[N+](C)(C)C)cc2)C(=O)N[C@@H](Cc2ccc3ccccc3c2)C(=O)NC2(C(=O)N[C@@H](CCC(=O)O)C(=O)N[C@@H](CC(N)=O)C(=O)N[C@@H](Cc3cccnc3)C(=O)N(C)CC(N)=O)CCOCC2)NC1=O [compound 427, cPEG3aCO-Pen(3)-N-T-7MeW-K(Ac)-Pen(3)-TMAPF-2Nal-THP-E-N-3Pya-Sar-CONH2]",3.9 nM
4,CC(=O)NCCCC[C@@H]1NC(=O)[C@H](Cc2c[nH]c3c(C)cccc23)NC(=O)[C@H]([C@@H](C)O)NC(=O)[C@H](CC(N)=O)NC(=O)[C@@H](NC(C)=O)C(C)(C)SSC(C)(C)[C@@H](C(=O)N[C@@H](Cc2ccc(OCC[N+]3(C)CCOCC3)cc2)C(=O)N[C@@H](Cc2ccc3ccccc3c2)C(=O)NC2(C(=O)N[C@@H](CCC(=O)O)C(=O)N[C@@H](CC(N)=O)C(=O)N[C@@H](Cc3cccnc3)C(=O)N(C)CC(N)=O)CCOCC2)NC1=O [compound 431],2.3 nM
5,CC(=O)NCCCC[C@@H]1NC(=O)[C@H](Cc2c[nH]c3c(C)cccc23)NC(=O)[C@H]([C@@H](C)O)NC(=O)[C@H](CC(N)=O)NC(=O)[C@@H](NC(C)=O)C(C)(C)SSC(C)(C)[C@@H](C(=O)N[C@@H](Cc2ccc(OCCOCCOCC[N+]3(C)CCOCC3)cc2)C(=O)N[C@@H](Cc2ccc3ccccc3c2)C(=O)NC2(C(=O)N[C@@H](CCC(=O)O)C(=O)N[C@@H](CC(N)=O)C(=O)N[C@@H](Cc3cccnc3)C(=O)N(C)CC(N)=O)CCOCC2)NC1=O [compound 432],3.6 nM
6,CC(=O)NCCCC[C@@H]1NC(=O)[C@H](Cc2c[nH]c3c(C)cccc23)NC(=O)[C@H]([C@@H](C)O)NC(=O)[C@H](CC(N)=O)NC(=O)[C@@H](NC(C)=O)C(C)(C)SSC(C)(C)[C@@H](C(=O)N[C@@H](Cc2ccc(OCCOCCOCC[N+]3(C)CCN(C)CC3)cc2)C(=O)N[C@@H](Cc2ccc3ccccc3c2)C(=O)NC2(C(=O)N[C@@H](CCC(=O)O)C(=O)N[C@@H](CC(N)=O)C(=O)N[C@@H](Cc3cccnc3)C(=O)N(C)CC(N)=O)CCOCC2)NC1=O [compound 433],3.6 nM
7,CC(=O)NCCCC[C@@H]1NC(=O)[C@H](Cc2c[nH]c3c(C)cccc23)NC(=O)[C@H]([C@@H](C)O)NC(=O)[C@H](CC(N)=O)NC(=O)[C@@H](NC(C)=O)C(C)(C)SSC(C)(C)[C@@H](C(=O)N[C@@H](Cc2ccc(N=[N+]=[N-])cc2)C(=O)N[C@@H](Cc2ccc3ccccc3c2)C(=O)NC2(C(=O)N[C@@H](CCC(=O)O)C(=O)N[C@@H](CC(N)=O)C(=O)N[C@@H](Cc3cccnc3)C(=O)N(C)CC(N)=O)CCOCC2)NC1=O [compound 435],2.2 nM
8,"CC(=O)NCCCC[C@@H]1NC(=O)[C@H](Cc2c[nH]c3c(C)cccc23)NC(=O)[C@H]([C@@H](C)O)NC(=O)[C@H](CC(N)=O)NC(=O)[C@@H](NC(=O)CCOCCOCC[N+](C)(C)C)C(C)(C)SSC(C)(C)[C@@H](C(=O)N[C@@H](Cc2ccc(-n3cc(CCC[N+]4(C)CCOCC4)nn3)cc2)C(=O)N[C@@H](Cc2ccc3ccccc3c2)C(=O)NC2(C(=O)N[C@@H](CCCCNC(C)=O)C(=O)N[C@@H](CC(N)=O)C(=O)N[C@@H](Cc3cccnc3)C(=O)N(C)CC(N)=O)CCOCC2)NC1=O [compound 439, cPEG3aCO-Pen(3)-N-T-7MeW-K(Ac)-Pen(3)-F(4TzlMMo3)-2Nal-THP-K(Ac)-N-3Pya-Sar-CONH2]",2.5 nM
9,CC(=O)NCCCC[C@@H]1NC(=O)[C@H](Cc2c[nH]c3c(C)cccc23)NC(=O)[C@H]([C@@H](C)O)NC(=O)[C@H](CC(N)=O)NC(=O)[C@@H](NC(C)=O)C(C)(C)SSC(C)(C)[C@@H](C(=O)N[C@@H](Cc2ccc(-n3cc(C[N+](C)(C)C)nn3)cc2)C(=O)N[C@@H](Cc2ccc3ccccc3c2)C(=O)NC2(C(=O)N[C@@H](CCC(=O)O)C(=O)N[C@@H](CC(N)=O)C(=O)N[C@@H](Cc3cccnc3)C(=O)N(C)CC(N)=O)CCOCC2)NC1=O [compound 441],2.7 nM
10,CC(=O)NCCCC[C@@H]1NC(=O)[C@H](Cc2c[nH]c3c(C)cccc23)NC(=O)[C@H]([C@@H](C)O)NC(=O)[C@H](CC(N)=O)NC(=O)[C@@H](NC(C)=O)C(C)(C)SSC(C)(C)[C@@H](C(=O)N[C@@H](Cc2ccc(-n3cc(CCCC[N+](C)(C)C)nn3)cc2)C(=O)N[C@@H](Cc2ccc3ccccc3c2)C(=O)NC2(C(=O)N[C@@H](CCC(=O)O)C(=O)N[C@@H](CC(N)=O)C(=O)N[C@@H](Cc3cccnc3)C(=O)N(C)CC(N)=O)CCOCC2)NC1=O [compound 442],2.9 nM
11,"CC(=O)NCCCC[C@@H]1NC(=O)[C@H](Cc2c[nH]c3c(-c4cccc(NC(C)=O)c4)cccc23)NC(=O)[C@H]([C@@H](C)O)NC(=O)[C@H](CC(N)=O)NC(=O)[C@@H](NC(=O)CCOCCOCC[N+](C)(C)C)C(C)(C)SSC(C)(C)[C@@H](C(=O)N[C@@H](Cc2ccc(OCCCCC[N+](C)(C)C)cc2)C(=O)N[C@@H](Cc2ccc3ccccc3c2)C(=O)NC2(C(=O)N[C@@H](CCC(=O)O)C(=O)N[C@@H](CC(N)=O)C(=O)N[C@@H](Cc3cccnc3)C(=O)N(C)CC(N)=O)CCOCC2)NC1=O [compound 444, cPEG3aCO-Pen(3)-N-T-7(3NAcPh)W-K(Ac)-Pen(3)-TMAPF-2Nal-THP-E-N-3Pya-Sar-CONH2]",2.9 nM
12,"CC(=O)NCCCC[C@@H]1NC(=O)[C@H](Cc2c[nH]c3c(-c4cccc(NC(C)=O)c4)cccc23)NC(=O)[C@H]([C@@H](C)O)NC(=O)[C@H](CC(N)=O)NC(=O)[C@@H](NC(=O)CCOCCOCC[N+](C)(C)C)C(C)(C)SSC(C)(C)[C@@H](C(=O)N[C@@H](Cc2ccc(OCCN)cc2)C(=O)N[C@@H](Cc2ccc3ccccc3c2)C(=O)NC2(C(=O)N[C@@H](CCCCNC(C)=O)C(=O)N[C@@H](CC(N)=O)C(=O)N[C@@H](Cc3cccnc3)C(=O)N(C)CC(N)=O)CCOCC2)NC1=O [compound 445, cPEG3aCO-Pen(3)-N-T-7(3NAcPh)W-K(Ac)-Pen(3)-AEF-2Nal-THP-K(Ac)-N-3Pya-Sar-CONH2]",1.7 nM
13,"CC(=O)NCCCC[C@@H]1NC(=O)[C@H](Cc2c[nH]c3c(C)cccc23)NC(=O)[C@H]([C@@H](C)O)NC(=O)[C@H](CC(N)=O)NC(=O)[C@@H](NC(=O)[C@@H](CCCC[N+](C)(C)C)NC(C)=O)C(C)(C)SSC(C)(C)[C@@H](C(=O)N[C@@H](Cc2ccc(OCCCCC[N+](C)(C)C)cc2)C(=O)N[C@@H](Cc2ccc3ccccc3c2)C(=O)NC2(C(=O)N[C@@H](CCC(=O)O)C(=O)N[C@@H](CC(N)=O)C(=O)N[C@@H](Cc3cccnc3)C(=O)N(C)CC(N)=O)CCOCC2)NC1=O [compound 446, MeCO-k(Me)3-Pen(3)-N-T-7MeW-K(Ac)-Pen(3)-TMAPF-2Nal-THP-E-N-3Pya-Sar-CONH2]",2.4 nM
14,"CC(=O)NCCCC[C@@H]1NC(=O)[C@H](Cc2c[nH]c3c(C)cccc23)NC(=O)[C@H]([C@@H](C)O)NC(=O)[C@H](CC(N)=O)NC(=O)[C@@H](NC(=O)[C@@H](CCCC[N+](C)(C)C)NC(C)=O)C(C)(C)SSC(C)(C)[C@@H](C(=O)N[C@@H](Cc2ccc(OCCCCC[N+](C)(C)C)cc2)C(=O)N[C@@H](Cc2ccc3ccccc3c2)C(=O)NC2(C(=O)N[C@@H](CCCCNC(C)=O)C(=O)N[C@@H](CC(N)=O)C(=O)N[C@@H](Cc3cccnc3)C(=O)N(C)CC(N)=O)CCOCC2)NC1=O [compound 450, MeCO-k(Me)3-Pen(3)-N-T-7MeW-K(Ac)-Pen(3)-TMAPF-2Nal-THP-K(Ac)-N-3Pya-Sar-CONH2]",1.7 nM
15,"CC(=O)NCCCC[C@@H]1NC(=O)[C@H](Cc2c[nH]c3c(-c4cccc(NC(C)=O)c4)cccc23)NC(=O)[C@H]([C@@H](C)O)NC(=O)[C@H](CC(N)=O)NC(=O)[C@@H](NC(C)=O)C(C)(C)SSC(C)(C)[C@@H](C(=O)N[C@@H](Cc2ccc(OCCCCC[N+](C)(C)C)cc2)C(=O)N[C@@H](Cc2ccc3ccccc3c2)C(=O)NC2(C(=O)N[C@@H](CCCCNC(C)=O)C(=O)N[C@@H](CC(N)=O)C(=O)N[C@@H](Cc3cccnc3)C(=O)N(C)CC(N)=O)CCOCC2)NC1=O [compound 452, MeCO-Pen(3)-N-T-7(3NAcPh)W-K(Ac)-Pen(3)-TMAPF-2Nal-THP-K(Ac)-N-3Pya-Sar-CONH2]",2.2 nM
